## Binding of CDR-mutated scFvs to a peptide of the spike HR2 region

Binding partner: SARS-CoV-2 spike HR2 peptide, sequence PDVDLGDISGINAS.

Parent: Ab-14, a human scFv built as VH, three GGGGS repeats, VL. Only the CDRs of the heavy chain vary.
VH: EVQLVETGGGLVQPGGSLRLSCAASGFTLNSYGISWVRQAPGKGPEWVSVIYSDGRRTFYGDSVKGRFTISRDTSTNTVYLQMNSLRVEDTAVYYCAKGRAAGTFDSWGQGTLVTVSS
VL: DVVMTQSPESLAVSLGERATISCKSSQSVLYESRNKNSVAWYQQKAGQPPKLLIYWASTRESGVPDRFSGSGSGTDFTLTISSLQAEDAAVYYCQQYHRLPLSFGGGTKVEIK

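Library AAYL49 holds single substitutions and randomly drawn double and triple substitutions in the CDRs. The assay is AlphaSeq: two haploid yeast populations carry antibody and antigen on their surface. Mating (16 h, 30 °C) was followed by selection of diploids and sequencing of their barcodes. A regression on co-assayed BCL2-family reference pairs converts the normalised counts of each replicate to an apparent Kd. Each pool was mated in three replicate cultures.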

Sequences are complete VH domains.
Each Kd is an estimate from the mating assay, the geometric mean of the replicates in which the pair was seen; lower is stronger.
An entry "nd" has no value in the source: the pair was not observed among the diploids in any replicate. This suggests poor binding but is not conclusive.
As a blank, each scFv also met three strains without target: over library AAYL49, 15% of these pairings were detected, typically at 11 µM and seldom below 680 nM. Also given: how often the same scFv was detected with the empty control strains.

VH	Kd (apparent)	seen in	control signals
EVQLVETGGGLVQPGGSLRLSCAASGWTLNSYGISWVRQAPGKGPEWVSVIYSDGRRTFYGDSVKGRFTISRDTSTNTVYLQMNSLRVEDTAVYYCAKGRTAGTFDSWGQGTLVTVSS	11 nM	3/3	1/9
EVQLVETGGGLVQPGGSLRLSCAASGFTLNSEGIYWVRQAPGKGPEWVSVIYSDGRRTFYGDSVKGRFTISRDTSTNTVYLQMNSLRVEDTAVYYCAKGRAAGAFDSWGQGTLVTVSS	71 µM	2/3	3/9
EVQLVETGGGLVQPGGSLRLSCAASGFTLNSYGISWVRQAPGKGPEWVSVSYSDGRRTFYGDSMKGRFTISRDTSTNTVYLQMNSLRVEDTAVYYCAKGHAAGTFDSWGQGTLVTVSS	nd	0/3	0/9
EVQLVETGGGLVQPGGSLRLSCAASGITLNSYGISWVRQAPGKGPEWVSVIYSDGRRTFYGDSVKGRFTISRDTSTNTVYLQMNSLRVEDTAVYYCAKGRHAGTFDHWGQGTLVTVSS	nd	0/3	1/9
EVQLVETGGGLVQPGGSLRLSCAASGFTLNSVGISWVRQAPGKGPEWVSVIQSDGRRTFYGDSVKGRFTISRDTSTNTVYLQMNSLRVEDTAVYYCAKGRATGTFDSWGQGTLVTVSS	nd	0/3	0/9
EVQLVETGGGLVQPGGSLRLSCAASGCTLNSYIISWVRQAPGKGPEWVSVIYSDGRRTFYGDLVKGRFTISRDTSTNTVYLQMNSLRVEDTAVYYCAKGRAAGTFDSWGQGTLVTVSS	nd	0/3	0/9
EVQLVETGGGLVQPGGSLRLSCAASGFYLNSYGISWVRQAPGKGPEWVSVIYRDGRRPFYGDSVKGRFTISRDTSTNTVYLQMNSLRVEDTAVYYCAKGRAAGTFDSWGQGTLVTVSS	53 µM	2/3	4/9
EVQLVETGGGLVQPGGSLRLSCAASGFTLNSYGISWVRQAPGKGPEWVSVRDSDGRRTFYGDSVKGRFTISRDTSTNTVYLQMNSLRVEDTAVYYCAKGRAAGTFDSWGQGTLVTVSS	nd	0/3	1/9
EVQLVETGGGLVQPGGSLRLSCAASGRLLNSYGISWVRQAPGKGPEWVSVIYSDGRRTFYGDSVKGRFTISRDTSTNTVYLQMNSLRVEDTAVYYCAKGRAAGTFDSWGQGTLVTVSS	nd	0/3	0/9
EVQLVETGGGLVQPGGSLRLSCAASGFTLNSYGISWVRQAPGKGPEWVSVIYSLGYRTFYADSVKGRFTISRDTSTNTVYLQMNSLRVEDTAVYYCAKGRAAGTFDSWGQGTLVTVSS	nd	0/3	0/9
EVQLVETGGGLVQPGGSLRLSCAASGWTLLSYGISWVRQAPGKGPEWVSVIYSDGRRTFYGDSVKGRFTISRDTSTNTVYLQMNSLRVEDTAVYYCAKGRAAGTFDTWGQGTLVTVSS	nd	0/3	1/9

Further variants, results first:

Kd (apparent)	seen in	control signals	VH
nd	0/3	1/9	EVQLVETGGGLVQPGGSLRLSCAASGFTLNSYFISWVRQAPGKGPEWVSVVYSDGRRTFYGDSVKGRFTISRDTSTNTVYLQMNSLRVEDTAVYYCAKGRAAGTFDSWGQGTLVTVSS
nd	0/3	0/9	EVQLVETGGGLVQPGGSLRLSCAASGFTLNSSGISWVRQAPGKGPEWVSVIYSDGYRTFYGDSVKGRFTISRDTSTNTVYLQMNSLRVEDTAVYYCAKGRAAGTFDQWGQGTLVTVSS
81 µM	3/3	2/9	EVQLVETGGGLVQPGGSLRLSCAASGFTLNSYGISWVRQAPGKGPEWVSVIYSDGNRTFYGDSVKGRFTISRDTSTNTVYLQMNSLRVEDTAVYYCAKGYAAGLFDSWGQGTLVTVSS
1.7 µM	2/3	2/9	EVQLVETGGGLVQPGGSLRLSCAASGFTLNSYGISWVRQAPGKGPEWVSVIYSDGRRTKYGDSVKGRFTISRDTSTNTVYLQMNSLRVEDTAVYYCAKGRAAGTFDQWGQGTLVTVSS
nd	0/3	0/9	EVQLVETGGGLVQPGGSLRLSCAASAFTLNSYGQSWVRQAPGKGPEWVSVIYSDGKRTFYGDSVKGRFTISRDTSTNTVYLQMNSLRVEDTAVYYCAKGRAAGTFDSWGQGTLVTVSS
nd	0/3	0/9	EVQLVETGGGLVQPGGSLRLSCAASGFTLNSYGISWVRQAPGKGPEWVSVIYMDGRRTFYGDSVKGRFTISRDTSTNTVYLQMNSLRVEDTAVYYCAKGMAAGTFDSWGQGTLVTVSS
66 µM	2/3	2/9	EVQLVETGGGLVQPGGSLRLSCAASGFCLNSYGRSWVRQAPGKGPEWVSVMYSDGRRTFYGDSVKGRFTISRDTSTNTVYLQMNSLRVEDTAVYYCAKGRAAGTFDSWGQGTLVTVSS
nd	0/3	0/9	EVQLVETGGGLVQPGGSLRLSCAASGFTLNSYEISWVRQAPGKGPEWVSVIYSDNRRTFYGDSVKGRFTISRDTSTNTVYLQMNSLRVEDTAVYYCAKDRAAGTFDSWGQGTLVTVSS
48 µM	2/3	2/9	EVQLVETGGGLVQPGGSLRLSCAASGFTLNSYGISWVRQAPGKGPEWVSDIDSDGRRTFYGDSVKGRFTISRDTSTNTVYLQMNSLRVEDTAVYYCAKGRAAGTSDSWGQGTLVTVSS
nd	0/3	0/9	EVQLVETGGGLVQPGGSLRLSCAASGFTLNSLGISWVRQAPGKGPEWVSVIYSDGRRTFIGDSVKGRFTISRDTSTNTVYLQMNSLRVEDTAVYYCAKGRAAGTFDKWGQGTLVTVSS
nd	0/3	0/9	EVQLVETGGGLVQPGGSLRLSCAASGFTLNSYGISWVRQAPGKGPEWVSVIYLDGRRTFYGDSVKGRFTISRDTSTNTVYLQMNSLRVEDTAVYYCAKLRAAQTFDSWGQGTLVTVSS

Picked from the list: the 2 lowest averages where every replicate gave a value.

{"VH": "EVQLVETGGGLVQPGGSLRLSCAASGWTLNSYGISWVRQAPGKGPEWVSVIYSDGRRTFYGDSVKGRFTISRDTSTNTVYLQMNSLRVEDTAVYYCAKGRTAGTFDSWGQGTLVTVSS", "Kd (apparent)": "11 nM", "seen in": "3/3", "control signals": "1/9"}
{"VH": "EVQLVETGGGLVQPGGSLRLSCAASGFTLNSYGISWVRQAPGKGPEWVSVIYSDGNRTFYGDSVKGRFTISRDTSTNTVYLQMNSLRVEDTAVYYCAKGYAAGLFDSWGQGTLVTVSS", "Kd (apparent)": "81 µM", "seen in": "3/3", "control signals": "2/9"}

In this assay the parent's reference entry averaged 4.4 nM; its copy inside this library read 13 µM (one replicate of three).

Values reported by Engelhart et al. 2022, doi:10.1038/s41597-022-01779-4 (FLAb copy).